Data set [1] can be described thus: Body temperature assay (IR thermometer). It is filed as in vivo, mice. To be noted: 50 mg/kg i.p., 30-minute time point. How it is done: The head-twitch response assay was performed as described previously using both male and female C57BL/6J mice (3 each per treatment). The mice were obtained from Jackson Laboratory and were approximately 9 weeks old at the time of the experiments. Before injecting the mice, their baseline temperature was measured using an IR thermometer as described. Compounds were administered via intraperitoneal (i.p.) injection (5 ml kg-1) using 0.9% saline as the vehicle. Immediately after the animals were placed in an arena for 30-minutes where their locomotor activity was assessed using AnyMaze automated tracking software. The behavior was also videotaped and later scored by two blind overserves for head-twitch responses, the results were averaged. Upon completion of the novelty induced locomotion assay their temperature was measured at the 30-minute mark. The mice were then transferred to a holding cage with their other treatment matched cage mates and their temperature was measured at the 90 and 120-minute mark.

Protein sequences, listed by entry. Tags and fused reporters are not part of them.
UniProt P31645, whole entry: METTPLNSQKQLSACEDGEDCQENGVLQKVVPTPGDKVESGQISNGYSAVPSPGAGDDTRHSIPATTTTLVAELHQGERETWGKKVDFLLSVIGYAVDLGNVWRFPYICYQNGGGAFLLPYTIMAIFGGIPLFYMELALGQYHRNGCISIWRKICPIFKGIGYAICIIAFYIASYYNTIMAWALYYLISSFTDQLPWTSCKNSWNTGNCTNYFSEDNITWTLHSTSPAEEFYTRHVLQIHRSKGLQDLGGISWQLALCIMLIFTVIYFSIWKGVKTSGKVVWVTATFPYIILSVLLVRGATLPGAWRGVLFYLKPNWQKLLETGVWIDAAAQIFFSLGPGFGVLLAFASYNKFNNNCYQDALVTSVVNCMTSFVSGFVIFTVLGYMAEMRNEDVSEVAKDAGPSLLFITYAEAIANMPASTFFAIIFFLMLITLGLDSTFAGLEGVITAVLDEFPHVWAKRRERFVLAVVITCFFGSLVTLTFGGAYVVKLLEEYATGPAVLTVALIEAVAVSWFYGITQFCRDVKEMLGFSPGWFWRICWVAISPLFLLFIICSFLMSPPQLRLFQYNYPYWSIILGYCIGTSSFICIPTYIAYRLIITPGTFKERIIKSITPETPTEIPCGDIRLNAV

The next data set has as its target T1, SERT (Homo sapiens, UniProt P31645).
T1 construct: host or cells: HEK293T cells, transient transfection with Lipofectamine 3000
The data set can be described thus: SERT efflux: [3H]5-HT release from SERT expressing HEK293T cells. It is filed as cell-based. To be noted: HEK293T cells transiently expressing SERT, 10 pM-100 uM. On the procedure:
HEK293T cells were grown in Dulbecco's Modified Eagle Media (DMEM) supplemented with 10% fetal bovine serum (FBS) and 1% penicillin-streptomycin. 24 hours prior to the experiment, cells were plated in 24-well plates at a density of 150,000 cells/well and concurrently transfected using Lipofectamine 3000 according to the manufacturer's protocol. Cells were transfected with hSERT-N1-pEYFP (Addgene #70105) or a GFP control plasmid (Lonza pmaxGFP vector). The next day the wells were washed (1×500 μL) with 1× Hank's Balanced Salt Solution supplemented with 2 mM MgCl2 and 2 mM CaCl2 (HBSS) and the plate was placed on a 37° C. water bath for the remainder of the experiment. 250 μL of HBSS containing 10 nM 5-[1,2-3H[N]]-hydroxytryptamine creatinine sulfate (NET498001MC, Lot: 2902700) was added to the wells and incubated for 15 minutes, allowing uptake into SERT expressing HEK cells. Uptake was terminated by aspiration of wells followed by washes (3×500 μL) with HBSS. […] Radioactivity in the form of disintegrations per minute (DPM) was determined the following day with the use of a Beckman LS 6000 liquid scintillation counter. […] The GFP control cells were checked to ensure radioactivity was below background levels.

Turning to “R-3,4-Methylenedioxy methamphetamine [R-MDMA, reference compound]”, the “body temperature relative to vehicle” value in data set [1] is reported as “significant decrease in temperature”. Further, the “[3H]5-HT release (efflux)” value on SERT was “the two highest concentration of 10 uM and 100 uM caused significant release of [^3H]5-HT”.

Source of the values: patent publication US20250122164A1, “N,N-[…] ANALOGS FOR TREATING BRAIN DISORDERS” (The Regents of the University of California, priority 2021, published 2025).
